Data as given in patent US10426815B2, “Prevention and treatment of itch with an MRGPR antagonist” (THE GENERAL HOSPITAL CORPORATION, priority 2015, dated 2019).
“Also recorded” adds a separate entry of the source.

Protein sequences, listed by entry. Tags and fused reporters are not part of them.
UniProt P25103, whole entry: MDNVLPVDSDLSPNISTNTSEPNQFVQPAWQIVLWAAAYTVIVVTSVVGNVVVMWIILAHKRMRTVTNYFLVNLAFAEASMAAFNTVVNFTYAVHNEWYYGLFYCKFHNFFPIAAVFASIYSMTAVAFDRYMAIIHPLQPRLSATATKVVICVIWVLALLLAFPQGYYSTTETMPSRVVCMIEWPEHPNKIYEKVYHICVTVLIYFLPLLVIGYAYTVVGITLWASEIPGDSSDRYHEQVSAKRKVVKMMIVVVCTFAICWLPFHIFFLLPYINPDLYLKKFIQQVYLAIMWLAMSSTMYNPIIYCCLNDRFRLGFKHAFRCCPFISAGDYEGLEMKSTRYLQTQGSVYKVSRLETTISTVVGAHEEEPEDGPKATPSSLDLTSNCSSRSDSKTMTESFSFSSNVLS

How the values were obtained:
NK1R (NK1) = molecular target: T1, NK1R (NK1) (Homo sapiens, UniProt P25103); assay: Calcium imaging of cells transfected with the GPCR (Table 1); assay type: cell-based; details: NPFF 50 μM
T1 construct: host or cells: HeLa cells, pcDNA3.1(-)
Method: Human NK1 cDNA was obtained from LIFE Technologies, PCR cloned with Xho I-Hind III ends and cloned into pcDNA3.1(−). Mouse NK2 and NK3 expression-ready vectors were obtained from GENSCRIPT (Piscataway, N.J.). All other Mrgprs (human MRGPRX1, human MRGPRX2, human MRGPRX3, human MRGPRX4, mouse MrgprA2a, mouse MrgprA2b, mouse MrgprA3, mouse MrgprA4, mouse MrgprA9, mouse MrgprA10, mouse MrgprB4 and mouse MrgprB5) were cloned by PCR from genomic DNAs and inserted into pcDNA3.1 (−).
10 μg of expression vector (human MRGPRX2, mouse MrgprA1 or NK1) and 10 μl of LIPOFECTAMINE 2000 transfection reagent were diluted into 0.5 ml of DMEM and separately left at room temperature (RT) for 5 min. They were then mixed and incubated at RT for 20 minutes prior to being added to HeLa cells. HeLa cells were grown to confluence, trypsinized and 1×10^6 cells were pelleted in a 15 ml tube by centrifugation at 1000 rpm for 5 minutes. […]
Calcium imaging was performed immediately after loading cells with Fura-2, using a ZEISS Axiovert 200M microscope platform equipped with a flipping filter wheel for ratiometric imaging. […] The software later analyzed all images taken during each excitation period. Ratiometric changes were measured in 10-20 cells in each individual experiment. An average of the fluorescence of the cells in each image was calculated and plotted against time in seconds. […]

MrgA1 (mouse MrgprA1) = molecular target: T2, MrgA1 (mouse MrgprA1) (Mus musculus, UniProt Q91WW5); assay: as above; assay type: cell-based
T2 construct: host or cells: HeLa cells
T2 sequence (Q91WW5 1-304): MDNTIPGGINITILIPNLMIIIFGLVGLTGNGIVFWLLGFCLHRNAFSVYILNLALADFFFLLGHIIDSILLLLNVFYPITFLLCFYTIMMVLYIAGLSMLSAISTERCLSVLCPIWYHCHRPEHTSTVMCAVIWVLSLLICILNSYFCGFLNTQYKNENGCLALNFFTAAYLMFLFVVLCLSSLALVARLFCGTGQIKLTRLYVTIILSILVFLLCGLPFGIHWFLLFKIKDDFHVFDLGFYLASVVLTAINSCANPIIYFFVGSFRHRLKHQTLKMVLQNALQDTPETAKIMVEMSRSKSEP
Method: (§1) human MRGPRX2 was isolated by PCR from human genomic DNA using the forward and reverse primers, […] (SEQ. ID. NO: 3) and […] (SEQ. ID. NO: 4), and cloned into pcDNA3.1(−). The mouse MrgprA1 cDNA expression clone was purchased from ORIGENE Technologies. The mouse MrgprB2 coding sequences were PCR-amplified from mouse genomic DNA using the primer pair, […] (SEQ. ID. NO: 5) and […] (SEQ. ID. NO: 6), and cloned into pcDNA3.1 (−).
(§2) 10 μg of expression vector (human MRGPRX2, mouse MrgprA1 or NK1) and 10 μl of LIPOFECTAMINE 2000 transfection reagent were diluted into 0.5 ml of DMEM and separately left at room temperature (RT) for 5 min. They were then mixed and incubated at RT for 20 minutes prior to being added to HeLa cells. HeLa cells were grown to confluence, trypsinized and 1×10^6 cells were pelleted in a 15 ml tube by centrifugation at 1000 rpm for 5 minutes. The DMEM-LIPOFECTAMINE 2000-DNA mixture (1 ml) was then added to the cell pellet, suspended and incubated at RT for 5 minutes. 2 ml of complete DMEM with 10% FBS without antibiotics were added to the tube, mixed by inverting the tube, plated into a 96-well glass bottom plate at 50,000 cells/well, and placed in a 37° C. CO2 incubator for 3 hours. HeLa cells transfected with salmon sperm DNA were plated as a control. The medium was changed after 3 hours and left in the incubator. 24 hours after transfection, the medium in the wells was removed and 100 μl of complete DMEM containing 2 μM of FURA-2 were added to each well and left at room temperature in the dark for 1 hr. Following loading with FURA-2, the medium was removed, washed with PBS and replaced with 90 μl of HEPES-buffered saline (20 mM HEPES, 115 mM NaCl, 5.4 mM KCl, 2 mM CaCl2, 0.8 mM MgCl2, 13.8 mM glucose, pH 7.4).
(§3) Calcium imaging was performed immediately after loading cells with Fura-2, using a ZEISS Axiovert 200M microscope platform equipped with a flipping filter wheel for ratiometric imaging. Axiovision software, version 4.6 was used for calcium image analysis of the cells excited at 340 nm and 380 nm. Agonists were added at 15 seconds after the start of the excitation procedure. […] The software later analyzed all images taken during each excitation period. Ratiometric changes were measured in 10-20 cells in each individual experiment. An average of the fluorescence of the cells in each image was calculated and plotted against time in seconds.
(§4) HeLa cells transfected with human MRGPRX2, mouse MrgprA1 and NK1 cDNAs were subjected to ratiometric imaging as described above with SP at concentrations from 0.1 nM-50 μM. Each of the concentration dependent readings was performed in triplicate. Maximum intensities at each of the dilutions were calculated and plotted against concentration using GraphPad Prism software. […]

MrgX2 (human MRGPRX2) [1] = molecular target: T3, MrgX2 (human MRGPRX2) (Homo sapiens, UniProt Q96LB1); assay: as above; assay type: cell-based
T3 construct: expressed in transfected cells; host or cells: HeLa cells, pcDNA3.1(-)
T3 sequence (Q96LB1 1-330): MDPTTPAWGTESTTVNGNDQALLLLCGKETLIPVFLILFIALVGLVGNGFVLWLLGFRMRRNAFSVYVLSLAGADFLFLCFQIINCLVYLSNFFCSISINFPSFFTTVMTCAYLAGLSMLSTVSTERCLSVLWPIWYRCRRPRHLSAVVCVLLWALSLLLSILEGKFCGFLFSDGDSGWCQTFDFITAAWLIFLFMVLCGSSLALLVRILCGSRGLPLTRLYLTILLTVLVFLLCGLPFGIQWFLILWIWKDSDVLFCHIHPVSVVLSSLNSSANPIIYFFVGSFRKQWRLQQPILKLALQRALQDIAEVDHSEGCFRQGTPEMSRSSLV
Method: as §1, §2, §3, §4

MrgX2 (human MRGPRX2) [2] = molecular target: T3, MrgX2 (human MRGPRX2); details: reference 15; cited from earlier work

**Q.** With “SP: inflammatory undecapeptide neuropeptide of the tachykinin family, synthesized by GenScript” as the substance, how does the “activation of NK1 by the substance (in words)” value (NK1R (NK1)) read?
**A.** specifically activated; also recorded: activates

**Q.** And the “potency of SP on mMrgprA1 relative to NK1R” value (MrgA1 (mouse MrgprA1))?
**A.** equal potency

**Q.** What about the “potency of SP on hMRGPRX2 relative to NK1R” value (MrgX2 (human MRGPRX2) [1]) of the same substance?
**A.** equal potency

**Q.** And the “SP activity on Mrgprs, rank order from concentration-effect curves” value (MrgX2 (human MRGPRX2) [1]; FIG. 5c)?
**A.** human MRGPRX2>mouse MrgprA1>mouse MrgprB2

**Q.** And the “activation of human MRGPRX2 by the substance (in words)” value (MrgX2 (human MRGPRX2) [1]; NPFF 50 μM, capsaicin 3 μM, SP at nanomolar concentrations)?
**A.** activates; also recorded: specifically activated

**Q.** What about the “SP activity on human MRGPRX2 relative to mouse MrgprB2” value (MrgX2 (human MRGPRX2) [2]) of the same substance?
**A.** 500 times
